Assay [1] deals with Nucleic Acid. Nature of the assay: Binding constant to Poly (dA-dT) determined by ethidium bromide displacement. Type of assay: nucleic-acid assay.
Assay [2] relates to Nucleic Acid. Nature of the assay: Binding constant to Poly (dG-dC) determined by ethidium bromide displacement. Type of assay: nucleic-acid assay.

Molecules are shown by their SMILES.

As for `CN(C)CCNC(=O)c1cccc2cc3ccccc3nc12`, the Log K is 6.12 in the assay with Nucleic Acid [1] and 6.54 in the assay with Nucleic Acid [2].
The matching figures for `CN(C)CCCCNC(=O)c1cccc2nc3ccccc3nc12`: 6.3 and 6.34.
`CN(C)CCCCNC(=O)c1cccc2cc3ccccc3nc12`: the Log K was 6.47 in the assay with Nucleic Acid [1] and 6.4 in the assay on Nucleic Acid [2].
The matching figures for `Cc1c2ccccc2nc2c(C(=O)NCCN(C)C)cccc12`: 6.48 and 5.97.

These data come from ChEMBL document CHEMBL1135572, “Kinetic studies of the binding of acridinecarboxamide topoisomerase poisons to DNA: implications for mode of binding of ligands with uncharged chromophores” (J Med Chem, 2002).
